Data reported in US20250382373A1, “ANTI-EGFR/MET ANTIBODIES AND USES THEREOF” (Biocytogen Pharmaceuticals (Beijing) Co., Ltd., priority 2022, published 2025).

Tests used:
NCI-H1975 cells = test: NCI-H1975 xenograft model in B-NDG mice; format: in vivo
Protocol: The lengths of the long axis and the short axis of the tumor were measured and the volume of the tumor was calculated as 0.5×(long axis)×(short axis)^2. The tumor growth inhibition (TGI) was calculated using the following formula: TGI (%)=[1−(Ti−T0)/(Vi−V0)]×100. Ti is the average tumor volume in the treatment group on day i. T0 is the average tumor volume in the treatment group on day zero. Vi is the average tumor volume in the control group on day i. V0 is the average tumor volume in the control group on day zero. T-test was performed for statistical analysis. […] P<0.05 is a threshold to indicate significant difference.

[1] = tested on: patient-derived ampullary tumor fragments; test: Human ampullary carcinoma PDX model; format: in vivo, B-NDG mice; details: for TGI (%): Day 21; for Tumor volume Day 0: day of grouping
Protocol: The ADCs were tested for their effect in human ampullary carcinoma PDX model.
The mice were then injected with PBS, ADCs or Amivantamab (Janssen, Cat #: LFS0L03) by intravenous (i.v.) administration.

[2] = Table 25 study, 3 mg/kg i.v. QW x2

## Cetuximab analog-ADC
NCI-H1975 cells; Table 25 study (tumor about 200 mm^3), 3 mg/kg i.v. QW x2, day of grouping
  Tumor volume Day 0: 193 ± 11 mm^3
NCI-H1975 cells; [2]
  Tumor volume Day 17: 352 ± 116 mm^3
  Tumor volume Day 31: 1712 ± 262 mm^3
NCI-H1975 cells; Table 25 study, 3 mg/kg i.v. QW x2, Day 31
  TGI (%): 51.7%
[1]; 3 mg/kg i.v. QW x2
  Tumor volume Day 14: 413 ± 72 mm^3
  Tumor volume Day 21: 440 ± 102 mm^3
  TGI (%): 80.2%
  Tumor volume Day 0: 273 ± 11 mm^3
[1]; 6 mg/kg i.v. QW x2
  Tumor volume Day 14: 290 ± 40 mm^3
  Tumor volume Day 21: 234 ± 71 mm^3
  TGI (%): 104.7%
  Tumor volume Day 0: 273 ± 14 mm^3
[1]; group G6, Day 39
  TGI: 78.7%
[1]; group G7, Day 39
  TGI: 57.5%
